These results are taken from patent publication US20040081973A1, “Cloning and characterization of a novel BK channel isoform highly expressed in glioma cells” (priority 2002, published 2004).

Sequences of proteins named here, by UniProt entry; tags and fusion partners are left off. Residues count along the entry.
UniProt Q12791, 66-1239 isoform Q12791-7 limits assumed: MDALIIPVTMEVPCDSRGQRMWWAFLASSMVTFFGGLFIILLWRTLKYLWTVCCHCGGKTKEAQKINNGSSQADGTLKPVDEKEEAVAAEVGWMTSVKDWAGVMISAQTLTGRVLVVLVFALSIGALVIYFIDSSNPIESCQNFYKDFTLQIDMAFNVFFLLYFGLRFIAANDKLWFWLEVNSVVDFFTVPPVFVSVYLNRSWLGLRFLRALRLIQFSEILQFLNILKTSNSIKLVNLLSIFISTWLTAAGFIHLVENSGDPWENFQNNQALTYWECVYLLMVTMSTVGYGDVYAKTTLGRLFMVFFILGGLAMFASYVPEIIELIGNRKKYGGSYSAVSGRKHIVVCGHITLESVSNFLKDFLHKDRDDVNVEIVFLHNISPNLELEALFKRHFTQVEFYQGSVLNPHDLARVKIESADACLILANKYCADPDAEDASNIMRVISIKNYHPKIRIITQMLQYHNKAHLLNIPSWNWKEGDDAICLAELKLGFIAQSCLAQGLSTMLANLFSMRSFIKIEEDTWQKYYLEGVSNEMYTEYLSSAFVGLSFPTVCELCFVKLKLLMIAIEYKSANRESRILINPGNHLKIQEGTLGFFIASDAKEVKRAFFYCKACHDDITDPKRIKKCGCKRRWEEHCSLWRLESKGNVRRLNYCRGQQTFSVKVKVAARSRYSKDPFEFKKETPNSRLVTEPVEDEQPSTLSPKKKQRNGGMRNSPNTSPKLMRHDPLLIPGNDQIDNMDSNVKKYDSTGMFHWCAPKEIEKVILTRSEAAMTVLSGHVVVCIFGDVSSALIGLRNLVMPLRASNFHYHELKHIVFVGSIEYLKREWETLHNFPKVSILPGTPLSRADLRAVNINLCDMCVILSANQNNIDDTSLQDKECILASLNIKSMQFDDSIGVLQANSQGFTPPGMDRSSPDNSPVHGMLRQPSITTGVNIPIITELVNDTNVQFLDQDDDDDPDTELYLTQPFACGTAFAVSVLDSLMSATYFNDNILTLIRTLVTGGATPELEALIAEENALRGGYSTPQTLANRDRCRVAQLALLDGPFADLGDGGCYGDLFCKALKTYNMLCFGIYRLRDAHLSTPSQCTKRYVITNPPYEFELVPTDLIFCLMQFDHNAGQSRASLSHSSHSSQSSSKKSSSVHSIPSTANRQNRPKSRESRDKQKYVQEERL

For one experiment, the target named is gBK (Homo sapiens, UniProt Q12791). The experiment can be described thus: Two-electrode voltage-clamp of gBK injected Xenopus oocytes, IbTX block. The experiment is classed as cell-based. On the set-up: gBK expression as a full-length protein in Xenopus oocytes was examined; expressed in transfected cells; host or cells: Xenopus laevis oocytes injected with in vitro transcribed gBK cRNA. As to the method:
(§1) FIG. 6 illustrates gBK forms functional, IbTX-sensitive BK channels in Xenopus oocytes. gBK injected oocytes express large voltage-activated outward currents. Current recordings were obtained by double-electrode voltage-clamp in OR2 medium containing 92.5 mM NaCl, 2.5 mM KCl, 1 mM CaCl2, 1 mM MgCl2 and 5 mM HEPES, pH 7.5, with 3 M KCl containing microelectrodes. Oocytes were held at −20 mV and stepped to test potentials between 0 and +180 in 20 mV increments. […] Greater than 60% of total currents were inhibited by 100 nM IbTX.
FIG. 7 illustrates the dose-response of IbTX inhibition of gBK currents in gBK injected oocytes. […] The data were least-squares fitted to a modified Hill equation of the form: I/Imax=1/(1+([IbTX]/IC50)^n), where I is the IbTX sensitive current, Imax is the maximum current of the fit, IC50 is the half-maximal inhibitory concentration of IbTX, and n is the Hill coefficient. The dose-responses were obtained after applying IbTX up to 20 min until it reached steady states and the continuous line was obtained from average data of three oocytes.
Stage VI oocytes from female Xenopus laevis (Xenopus I, Ann Arbor, Mich.) were harvested and incubated at 16° C. before injection. […] Functional BK channel expression was observed within 2 days and increasing current levels could be measured up to 4-7 days after injection. […]
The ability of gBK protein expressed in Xenopus oocytes to form functional BK channels was examined by two-electrode voltage-clamp. […] Two days after cRNA injection, large amplitude voltage-activated outward currents were recorded (FIG. 6, right panel), which were not detected in uninjected oocytes (FIG. 6, left panel). […]
A complete dose-response curve for inhibition of gBK currents by IbTX was established from three oocytes by voltage-clamp recordings. […] The IC50 and Hill coefficient of IbTX inhibition of gBK currents were determined by least-squares fit of the I/Imax-[IbTX] relation of IbTX sensitive currents to a Hill equation. […]

Another experiment concerns U-251MG glioma cells. The following applies: U-251MG glioma cells (Soroceanu et al., 1999); cited from earlier work.
Experiment [1] relates to currents in uninjected oocytes. The experiment can be described thus: Two-electrode voltage-clamp of uninjected Xenopus oocytes. The class given is cell-based, Xenopus laevis. The following applies: 100 nM IbTX. The protocol: as §1
The ability of gBK protein expressed in Xenopus oocytes to form functional BK channels was examined by two-electrode voltage-clamp. Two days after cRNA injection, the oocytes were placed in a 100 μl chamber with continuous perfusion of OR2 solution. The oocytes were voltage-clamped at −20 mV and then jumped to 10 voltage steps in 20 mV increments (0˜+180 mV) using a GeneClamp 500 amplifier (Axon Instruments, Foster City, Calif.). The current signal was low-pass-filtered at 2 kHz and digitized at 10 kHz. […] Two days after cRNA injection, large amplitude voltage-activated outward currents were recorded (FIG. 6, right panel), which were not detected in uninjected oocytes (FIG. 6, left panel). […]
In general terms: In two-electrode clamp one electrode senses voltage and the other passes current.

For the next experiment, the system named is U251-MG glioma cells. To be noted: 10 nM; U251-MG glioma cells (Soroceanu et al., 1999); cited from earlier work.

The term inhibition denotes how much of the control response was suppressed. One may read the IC50 as the concentration needed to halve the response being measured. A higher IC50 goes with lower potency. For the compound `CSCC[C@@H]1NC(=O)[C@@H]2CSSC[C@H](NC(=O)[C@H](CC(=O)O)NC(=O)[C@@H](NC(=O)[C@H](CC(=O)O)NC(=O)[C@@H](NC(=O)[C@H](Cc3ccccc3)NC(=O)[C@@H]3CCC(=O)N3)[C@@H](C)O)C(C)C)C(=O)N[C@@H](CO)C(=O)N[C@@H](C(C)C)C(=O)N[C@@H](CO)C(=O)N[C@@H](CCCCN)C(=O)N[C@@H](CCC(=O)O)C(=O)N[C@H]3CSSC[C@H](NC(=O)[C@H](CCCCN)NC(=O)[C@H](CCCCN)NC(=O)CNC1=O)C(=O)N[C@@H](CCCNC(=N)N)C(=O)N[C@H](C(=O)N[C@@H](Cc1ccc(O)cc1)C(=O)N[C@@H](CCC(N)=O)C(=O)O)CSSC[C@H](NC(=O)[C@H](C(C)C)NC(=O)[C@H](CO)NC(=O)[C@H](Cc1c[nH]c4ccccc14)NC3=O)C(=O)N[C@@H](CCCCN)C(=O)N[C@@H](CC(=O)O)C(=O)N[C@@H](CC(C)C)C(=O)N[C@@H](Cc1ccccc1)C(=O)NCC(=O)N[C@@H](C(C)C)C(=O)N[C@@H](CC(=O)O)C(=O)N[C@@H](CCCNC(=N)N)C(=O)NCC(=O)N[C@@H](CCCCN)C(=O)N2` [IbTX, iberiotoxin], the inhibition at 0.1 µM on gBK (100 nM IbTX, gBK injected oocytes, read-out: Inhibition of total currents) is above 60%. For the same compound, the “Hill coefficient of IbTX block of gBK currents” value on gBK (±S.D., n=3 oocytes) is reported as 0.76±0.10. The compound also returned an IC50 against gBK (±S.D., n=3 oocytes, steady-state currents at +160 mV) of 5.7 ± 1.23 nM. In the experiment on U-251MG glioma cells, the “Effect on migration in vitro” value was “inhibit migration”. Moreover, the “Effect on currents in uninjected oocytes” value in experiment [1] is reported as “did not affect currents”. Further, the “Effect on in vitro invasion” value with U251-MG glioma cells is “reduce the in vitro invasion”.
